# US20220072138A1, “NRTI THERAPIES” (THE UNIVERSITY OF LIVERPOOL, priority 2018, published 2022)
# Conditions: phosphate buffer 100 mM, pH 7.4, 37° C.; compounds 2, 5 and 8 compared
substance,measurement,value
N-(4-methoxyphenyl)-tenofovir alafenamide carbamate [TAF carbamate 2],relative rate of hydrolytic cleavage,fastest
